Assays:
Mus musculus [1] = assay: In vivo opioid receptor activity in mouse tail flick assay; type: functional
Mus musculus [2] = assay: In vivo opioid receptor activity in mouse p-phenylquinone writhing assay; type: functional

Question: For `CN(C(=O)Cc1cccc2occc12)[C@H]1CC[C@@]2(CCCO2)C[C@@H]1N1CCCC1`, which ED50 (Mus musculus [1]) is on record?
Answer: The ED50 was 15 µg/kg.

Question: And the ED50 (Mus musculus [2])?
Answer: Its ED50 is 1.5 µg/kg.

Source: ChEMBL document CHEMBL1145160, “Neoclerodane diterpenes as a novel scaffold for mu opioid receptor ligands” (J Med Chem, 2005)
